Results taken from EP2757379A1, “Method to screen for the teratogenic potential of substances” (priority 2013, dated 2014).

Chains of the proteins cited; added tags and fusions are not shown.
UniProt A4TVL0, entry or part of it W36F/W59F: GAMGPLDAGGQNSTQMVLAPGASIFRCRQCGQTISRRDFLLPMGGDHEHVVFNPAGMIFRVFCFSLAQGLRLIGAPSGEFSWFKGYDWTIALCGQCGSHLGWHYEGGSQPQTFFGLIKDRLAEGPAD

Legend:
[1] = target: T1, CRBN homologue mutant W36/59F from M. gryphiswaldense (Magnetospirillum gryphiswaldense, UniProt A4TVL0, W36F/W59F); test: biochemical; format: binding
T1 construct: His tag (vector pETHis_1a), TEV-cleavable (N, cleaved yes); made in house; host or cells: E. coli C41
Source text: Depending on the binding affinity it appears useful to determine the optimal concentration range for the assay in advance. It is further recommended to test for a possible quenching effect of the candidate substance on tryptophan fluorescence. This quenching of tryptophan fluorescence is still measurable at 440 nm and influences the intensity and reliability of the FRET signal when using MANT-uracil. For that reason we measured in parallel the emission at 440 nm for the following three reaction mixtures containing: • 1. CRBN homologue mutant W36/59F from M. gryphiswaldense (final 3µM) and several concentrations of candidate substance in assay buffer; • 2. several concentrations of candidate substance in assay buffer, • 3. CRBN homologue mutant W36/59F from M. gryphiswaldense (final 3µM), MANT-uracil (final 3 µM) and several concentrations of candidate substance in assay buffer.
As it is shown for uridine in Fig. 8, we titrated increasing concentrations of uridine in 100 µl of a 3 µM protein solution in assay buffer and the according references as described above (example 5). The measurements were performed as described.

[2] = target: W36/59F mutant of the cereblon homologue from M. gryphiswaldense (Magnetospirillum gryphiswaldense, UniProt A4TVL0, W36F/W59F); test: biochemical

For `O=C1CCC(N2C(=O)c3ccccc3C2=O)C(=O)N1` (stereo not drawn) [thalidomide, α-phthalimido glutarimide], the Kd [1] was 5.8 µM and the IC50 [2] was 3.81 µM.
